High-throughput results from PubChem.
Vif inh – HIV Vif self-association inhibitors, primary screen, imaging, HEK293T, single point. HEK293T cells, Vif self-association by quenched fluorescence, 24 h. 340,000 compounds, 0.35% hits. inhibition, % at 7.49 µM; in the data active means inhibition above about 50%, passing the limit was not always enough
PglD DTNB – C. jejuni PglD acetyltransferase inhibitors, primary screen, biochemical, DTNB colorimetric, single point | UDP-N-acetylbacillosamine N-acetyltransferase PglD (Campylobacter jejuni) | purified PglD enzyme, DTNB colorimetric CoA detection | inhibition, % at 12.5 µM | 360,000 compounds, 0.098% hits; in the data active means inhibition above about 16%, passing the limit was not always enough
ARNT-TACC3 inh – disruptors of ARNT/TACC3 protein interaction, primary screen, biochemical, AlphaScreen, single concentration; AlphaScreen His-ARNT PAS-B/GST-TACC3 binding, luminescence; TACC3 fragment carries E629A point mutation; inhibition, % at 9.99 µM; 390,000 compounds, 0.66% hits; Transforming acidic coiled-coil-containing protein 3 (Homo sapiens), Q9Y6A5;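 active means mean inhibition of replicates at least 50% and at least half of replicates each reaching 50%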
Yeast UUG start – modulators of start codon recognition fidelity in yeast. S. cerevisiae UUG-firefly luciferase reporter, luminescence/redox ratio. activity score, % at 18.7 µM. 0.13% of 350,000 active. AID 602363;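 active = replicate mean at a twofold rise or more, about +100% in these data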;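 also: firefly luciferase made from a UUG start codon reports start codon fidelity; reporter light over untreated wells divided by growth signal over untreated wells; some hits fall short of that in this replicate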
CAL PDZ FP-1 – untagged CAL PDZ binding inhibitors, primary screen, biochemical, fluorescence polarization, HTS; Golgi-associated PDZ and coiled-coil motif-containing protein (Homo sapiens), Q9HD26; purified CAL PDZ, TMR-peptide fluorescence polarization, 1 h; inhibition, % at 24.9 µM; 300,000 compounds, 0.92% hits;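 active means mean inhibition of at least 30% with at least half of replicates also reaching 30%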
CAL PDZ FP-2 – CAL PDZ peptide-binding inhibitors, primary screen, biochemical, fluorescence polarization, Cer-tagged CAL PDZ, HTS; Golgi-associated PDZ and coiled-coil motif-containing protein (Homo sapiens), Q9HD26; purified CAL PDZ, TMR-peptide fluorescence polarization, 1 h; inhibition, % at 20 µM; 330,000 compounds, 0.02% hits; AID 504414, 2011;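 active means highest replicate inhibition of at least 40%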
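Material – purified CerCALP PDZ construct · Detection – FP readout, S and P plane fluorescence · Measure – percent inhibition from loss of millipolarization · Controls – unlabelled peptide for full inhibition, DMSO wells as neutral · Probe or stimulus – TMR-labelled reporter peptide T*-PRC34 bound in PDZ groove · Times – 1 h at RT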
Large screens that a line does not name were inactive. In the library only some 1.6% were active in any assay of this set; here they are far more common.

O=C(CNC(=O)c1ccncc1)N/N=C/c1cc(Br)ccc1O	ARNT-TACC3 inh 46.4 (no result: PglD DTNB, Yeast UUG start)
CC(C)NC(=O)N(C)C[C@H]1Oc2ccc(NC(=O)CCN3CCOCC3)cc2CC(=O)N([C@@H](C)CO)C[C@@H]1C	none (no result: Vif inh, CAL PDZ FP-1, CAL PDZ FP-2)
COc1ccc(S(=O)(=O)N(C)C[C@@H]2Oc3ccc(NS(=O)(=O)c4cccs4)cc3C(=O)N([C@H](C)CO)C[C@@H]2C)cc1	none (no result: Vif inh, CAL PDZ FP-1, CAL PDZ FP-2)
O=C(C[C@H]1C[C@H]2c3cc(NC(=O)C4CCOCC4)ccc3O[C@H]2[C@@H](CO)O1)NCc1ccncc1	none (no result: Vif inh, CAL PDZ FP-1, CAL PDZ FP-2)
O=C(C[C@H]1C=C[C@@H](NC(=O)C2CC2)[C@@H](CO)O1)NCc1ccccc1Cl	none (no result: Vif inh, CAL PDZ FP-1, CAL PDZ FP-2)
CCN1CCN(C(=O)c2cc(=O)c3cc(C)ccc3o2)CC1	CAL PDZ FP-1 44.2 (no result: ARNT-TACC3 inh)
CCSC1=N/C(=C\c2ccccc2)C(=O)N1	CAL PDZ FP-1 60.8
CCC(=O)Nc1ccc2c(c1)C(=O)N(C)C[C@H](OC)[C@H](C)CN(C(=O)CC1CC1)[C@@H](C)CO2	none (no result: Vif inh, CAL PDZ FP-1, CAL PDZ FP-2)
C[C@H](CO)N1C[C@H](C)[C@@H](CN(C)C(=O)NC2CCCCC2)OCCCC[C@H](C)Oc2ccc(NS(=O)(=O)c3ccc(F)cc3)cc2C1=O	none (no result: Vif inh, CAL PDZ FP-1, CAL PDZ FP-2)
CC1CCCC(NC(=O)C2CCN(S(=O)(=O)c3cnc[nH]3)CC2)C1C (stereo not drawn)	CAL PDZ FP-1 64.2
CN1CCN(C(=O)C2CCN(S(=O)(=O)c3cnc[nH]3)CC2)CC1	none
CO[C@H]1CN(C)C(=O)c2ccc(NC(C)=O)cc2OC[C@H](C)N(C(=O)C2CCCCC2)C[C@@H]1C	none (no result: Vif inh, CAL PDZ FP-1, CAL PDZ FP-2)
O=C1CN2NC(=S)N(c3ccc(Cl)cc3)C2=CN1c1ccc(Cl)cc1	none (no result: PglD DTNB, Yeast UUG start)
O=C1CN2NC(=S)N(c3ccccc3)C2=CN1c1ccc(Cl)cc1	CAL PDZ FP-1 114.7 (no result: PglD DTNB, Yeast UUG start)
O=C1C2C3C=CC(O3)C2C(=O)N1N=Cc1cccc2ccccc12 (stereo not drawn)	CAL PDZ FP-1 111.6
O=Cc1s/c(=N\S(=O)(=O)c2ccccc2)n(CCCCl)c1Cl	Vif inh 57.2 (no result: PglD DTNB, Yeast UUG start)
CCOc1cc2c(C#N)c(N3CCNCC3)nc(N)c2c(N)n1	CAL PDZ FP-1 70.4
COc1cc2c(C#N)c(N3CCOCC3)nc(N)c2c(N)n1	ARNT-TACC3 inh 69.2 (no result: CAL PDZ FP-2)
CCOC(=O)C1CCN(c2nc(N)c3c(N)nc(SCC(=O)O)cc3c2C#N)CC1	ARNT-TACC3 inh 51.5
C[C@@H]1CN([C@H](C)CO)C(=O)c2cc(NC(=O)CCN3CCOCC3)ccc2O[C@H]1CN(C)S(=O)(=O)c1cccs1	none (no result: Vif inh, ARNT-TACC3 inh, CAL PDZ FP-1, CAL PDZ FP-2)
COc1ccccc1N1CCN(S(=O)(=O)c2ccc3c(c2)NC(=O)C(C)S3)CC1 (stereo not drawn)	CAL PDZ FP-1 113.7
CCOc1ccc(N=Nc2ccc(O)c3ncccc23)cc1	none
CCOc1ccc2c(ccc(/C=C/c3cc(C)c4cccnc4c3O)[n+]2C)c1	ARNT-TACC3 inh 65.3 (no result: PglD DTNB, Yeast UUG start)
COc1ccccc1-c1ccc(SCc2ccc(F)cc2)nn1	CAL PDZ FP-1 79.9 (no result: PglD DTNB, Yeast UUG start)
O=C(NCc1ccccn1)NC12CC3CC(CC(C3)C1)C2	CAL PDZ FP-1 76.1
O=C(NCc1ccccc1)NC12CC3CC(CC(C3)C1)C2	none (no result: PglD DTNB, Yeast UUG start)
CC(C)NC(=O)Nc1ccc2c(c1)C(=O)N([C@@H](C)CO)C[C@H](C)[C@@H](CN(C)C(=O)Nc1ccc3c(c1)OCO3)OCCCC[C@H](C)O2	none (no result: Vif inh, CAL PDZ FP-1, CAL PDZ FP-2)
CNS(=O)(=O)c1cccc(C(=O)OCC(=O)c2ccc3c(c2)OCCO3)c1	CAL PDZ FP-1 45.2
CCCCCCc1cc2cc(-c3nnc(-c4ccccc4O)o3)c(=O)oc2cc1O	none (no result: CAL PDZ FP-1)
CCCCCCc1cc2cc(-c3nnc(-c4ccccc4OC)o3)c(=O)oc2cc1O	Vif inh 69.9
